Results reported in patent publication US8691813B2, “Indole and benzoxazine derivatives as modulators of metabotropic glutamate receptors” (Janssen Pharmaceuticals, Inc., priority 2008, dated 2014).

Amino acid sequences for entries named in this document (tags omitted). Residues count along the entry.
UniProt Q14416, 19-872 limits assumed: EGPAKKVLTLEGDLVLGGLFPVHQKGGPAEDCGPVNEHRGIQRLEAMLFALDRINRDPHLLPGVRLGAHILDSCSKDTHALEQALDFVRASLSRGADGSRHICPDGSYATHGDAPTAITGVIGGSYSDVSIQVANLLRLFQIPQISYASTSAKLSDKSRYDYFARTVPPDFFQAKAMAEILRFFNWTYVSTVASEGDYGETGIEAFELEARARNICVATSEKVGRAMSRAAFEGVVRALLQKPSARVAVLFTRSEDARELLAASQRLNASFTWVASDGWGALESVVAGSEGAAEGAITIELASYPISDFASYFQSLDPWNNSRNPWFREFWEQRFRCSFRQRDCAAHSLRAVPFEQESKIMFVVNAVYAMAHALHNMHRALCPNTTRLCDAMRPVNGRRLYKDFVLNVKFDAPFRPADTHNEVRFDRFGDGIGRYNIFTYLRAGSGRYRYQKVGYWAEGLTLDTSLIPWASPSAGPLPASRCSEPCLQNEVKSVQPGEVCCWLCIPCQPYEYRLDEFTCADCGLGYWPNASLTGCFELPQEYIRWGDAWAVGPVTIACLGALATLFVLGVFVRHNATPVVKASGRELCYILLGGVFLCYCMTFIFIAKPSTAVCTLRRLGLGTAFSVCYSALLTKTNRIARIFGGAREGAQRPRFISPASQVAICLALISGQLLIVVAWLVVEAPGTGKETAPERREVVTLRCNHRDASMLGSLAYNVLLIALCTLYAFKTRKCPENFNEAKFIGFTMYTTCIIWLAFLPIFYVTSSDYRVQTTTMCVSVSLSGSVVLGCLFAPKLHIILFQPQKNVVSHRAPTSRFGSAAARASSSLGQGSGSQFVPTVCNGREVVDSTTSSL

Biological target: human mGluR2 (Homo sapiens, UniProt Q14416)
Assay: [35S]GTPγS binding assay (PAM assay) using membranes from CHO cells transfected with the human mGluR2 receptor
Details: in presence of glutamate at predetermined EC25 concentration; membranes containing human mGluR2; averages of duplicate values of 11-concentration response curves

| GTPγS -hR2 PAM pEC50 | SMILES |
| --- | --- |
| 6.24 | N#Cc1c(-c2ccc3c(c2)OCCN3C2CCOCC2)ccn2c(CC(F)(F)F)cnc12 |
| 6.27 | Cc1c[nH]c2ccc(-c3ccn4c(CC(F)(F)F)cnc4c3C#N)cc12 |

| SMILES | GTPγS -hR2 PAM pEC50 |
| --- | --- |
| N#Cc1c(-c2ccc3c(c2)OCCN3)ccn2c(CC(F)(F)F)cnc12 | 5.78 |
